Only a part of the results on these compounds is given; other tests are left out.
Key:
[1] = Cmax in human at 5 mg, TD; conditions: in vivo, topical_or_ocular
[2] = Cmax in human at 0.5 mg. TM
[3] = Unbound Cmax in human at 5 mg, TD; conditions: in vivo, topical_or_ocular
[4] = Unbound Cmax in human at 0.5 mg. TM
[5] = Unbound maximal portal vein concentration of in human at 5 mg, TD; conditions: in vivo
[6] = Unbound maximal portal vein concentration of in human at 0.5 mg. TM
[7] = target: T1, Solute carrier family 22 member 1 (Homo sapiens, UniProt O15245); assay: Substrate activity at human OCT1 expressed in HEK293 cells assessed as increase in compound uptake at 0.05 uM incubated for 2 mins by LC-MS/MS analysis relative to control empty vector transfected cells; assay type: cell-based; conditions: hek293, 2 min
[8] = target: T1, Solute carrier family 22 member 1; assay: Substrate activity at human OCT1 expressed in HEK293 cells assessed as increase in compound uptake at 0.1 uM incubated for 2 mins by LC-MS/MS analysis relative to control empty vector transfected cells; assay type: cell-based; conditions: hek293, 2 min
[9] = target: T1, Solute carrier family 22 member 1; assay: Substrate activity at human OCT1 expressed in HEK293 cells assessed as increase in compound uptake at 0.5 uM incubated for 2 mins by LC-MS/MS analysis relative to control empty vector transfected cells; assay type: cell-based; conditions: hek293, 2 min
[10] = Unbound Cmax in human at 0.615 mg, po dosed as single dose; conditions: in vivo
[11] = Unbound Cmax in human at 0.615 mg, po dosed as repeated dose; conditions: in vivo
[12] = Unbound maximal portal vein concentration of in human at 0.615 mg, po dosed as single dose; conditions: in vivo
[13] = Unbound maximal portal vein concentration of in human at 0.615 mg, po dosed as repeated dose; conditions: in vivo
[14] = Ratio of unbound Cmax in human at 0.615 mg, po dosed as single dose to inhibition of human OCT1 expressed in HEK293 cells assessed as reduction in ASP+ substrate uptake by microplate reader based analysis; conditions: in vivo
[15] = Ratio of unbound Cmax in human at 0.615 mg, po dosed as repeated dose to inhibition of human OCT1 expressed in HEK293 cells assessed as reduction in ASP+ substrate uptake by microplate reader based analysis; conditions: in vivo
[16] = Ratio of unbound maximal portal vein concentration in human at 0.615 mg, po dosed as single dose to inhibition of human OCT1 expressed in HEK293 cells assessed as reduction in ASP+ substrate uptake by microplate reader based analysis; conditions: in vivo
[17] = Ratio of unbound maximal portal vein concentration in human at 0.615 mg, po dosed as repeated dose to inhibition of human OCT1 expressed in HEK293 cells assessed as reduction in ASP+ substrate uptake by microplate reader based analysis; conditions: in vivo

Sequences of proteins named here, by UniProt entry; tags and fusion partners are left off.
UniProt O15245, whole entry: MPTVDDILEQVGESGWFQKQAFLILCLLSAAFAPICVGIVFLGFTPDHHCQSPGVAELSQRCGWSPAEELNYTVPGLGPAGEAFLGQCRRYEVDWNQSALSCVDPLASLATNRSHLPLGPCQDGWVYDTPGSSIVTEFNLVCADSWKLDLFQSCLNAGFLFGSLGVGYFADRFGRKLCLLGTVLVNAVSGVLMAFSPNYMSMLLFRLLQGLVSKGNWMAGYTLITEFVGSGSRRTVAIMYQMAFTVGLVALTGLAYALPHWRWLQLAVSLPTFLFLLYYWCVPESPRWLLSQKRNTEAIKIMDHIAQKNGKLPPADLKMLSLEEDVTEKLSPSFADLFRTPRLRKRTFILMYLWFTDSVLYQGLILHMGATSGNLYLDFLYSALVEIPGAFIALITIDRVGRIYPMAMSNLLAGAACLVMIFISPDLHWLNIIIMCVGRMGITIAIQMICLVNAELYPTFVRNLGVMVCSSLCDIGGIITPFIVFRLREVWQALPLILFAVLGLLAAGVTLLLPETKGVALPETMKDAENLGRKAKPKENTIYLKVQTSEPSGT

Compound	Cmax [1]	Cmax [2]	fCmax [3]	fCmax [4]	fCmax [5]	fCmax [6]	fold change (FC) [7]	fold change (FC) [8]	fold change (FC) [9]	fCmax [10]	fCmax [11]	fCmax [12]	fCmax [13]	Ratio [14]	Ratio [15]	Ratio [16]	Ratio [17]
CCC(=O)N(c1ccccc1)C1CCN(CCc2ccccc2)CC1	4 nM	2 nM	0.0007 µM	0.0004 µM	0.14 µM	0.01 µM											
CCC(=O)N(c1ccccc1)C1(COC)CCN(CCc2cccs2)CC1							1.1	1	1.1	1e-05 µM	5e-05 µM	0.0002 µM	0.007 µM	4e-07	3e-06	1e-05	0.0004

Reference: ChEMBL document CHEMBL4321821, “Opioids as Substrates and Inhibitors of the Genetically Highly Variable Organic Cation Transporter OCT1” (J Med Chem, 2019)
